What was measured:
[1] = target: NOP receptor (NOP-RLuc/Gβ1-RGFP) (Homo sapiens, UniProt P41146); test: NOP/G protein interaction, BRET assay in membranes; format: biochemical; conditions: Emax of ligand / Emax of N/OFQ(1–13)-NH2; mean ± sem of five experiments in duplicate
[2] = target: NOP receptor (NOP-RLuc/β-arrestin 2-RGFP) (Homo sapiens, UniProt P41146); test: NOP/β-arrestin 2 interaction, BRET assay in whole cells; format: cell-based; conditions: Emax of ligand / Emax of N/OFQ(1–13)-NH2; mean ± sem of five experiments in duplicate
NOP receptor = test: NOP bias factor, G protein vs β-arrestin 2 (Black–Leff operational model); conditions: for BIAS FACTOR: supplementary CSV (molecular formula strings), repeats Tables 1–7 without confidence limits; for bias factor (CL95%), NOP: ΔΔlog(τ/KA) G protein minus β-arrestin 2, N/OFQ(1–13)-NH2 as standard unbiased ligand, positive = toward G protein, mean of at least five experiments

Chains of the proteins cited; added tags and fusions are not shown.
UniProt P41146, whole entry: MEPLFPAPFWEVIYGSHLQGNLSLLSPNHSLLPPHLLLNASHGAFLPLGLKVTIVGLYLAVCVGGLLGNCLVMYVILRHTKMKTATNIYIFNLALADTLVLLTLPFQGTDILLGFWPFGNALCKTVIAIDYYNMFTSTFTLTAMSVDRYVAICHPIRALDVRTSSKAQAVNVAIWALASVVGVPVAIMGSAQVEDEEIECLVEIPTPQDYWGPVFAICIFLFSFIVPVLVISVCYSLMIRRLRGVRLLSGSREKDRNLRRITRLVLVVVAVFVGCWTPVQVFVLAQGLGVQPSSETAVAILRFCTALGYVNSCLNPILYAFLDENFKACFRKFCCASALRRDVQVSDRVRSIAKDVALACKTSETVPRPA

| SMILES | NOP/G protein α ± sem (intrinsic activity) [1] | NOP/β-arrestin 2 α ± sem (intrinsic activity) [2] | BIAS FACTOR (NOP receptor) | bias factor (CL95%), NOP (NOP receptor) |
| --- | --- | --- | --- | --- |
| C[C@H](NC(=O)CNC(=O)[C@@H](NC(=O)[C@H](Cc1ccccc1)NC(=O)CNC(=O)CNC(=O)[C@@H](N)Cc1ccccc1)[C@@H](C)O)C(=O)N[C@@H](CCCNC(=N)N)C(=O)N[C@@H](CCCCN)C(=O)N[C@@H](CO)C(=O)N[C@@H](C)C(=O)N[C@@H](CCCNC(=N)N)C(=O)N[C@@H](CCCCN)C(=O)N[C@@H](CSC1CC(=O)N(CCCC(=O)NCCCCCCCCCCC(=O)NCCCCCCCCCCC(=O)NCCCCCCCCCCC(N)=O)C1=O)C(N)=O (stereo partly shown) | 0.96±0.01 | 0.79 ± 0.04 ^a | 0.09 | 0.09 (-0.32-0.50) |
| C[C@H](NC(=O)CNC(=O)[C@@H](NC(=O)[C@H](Cc1ccccc1)NC(=O)CNC(=O)CNC(=O)[C@@H](N)Cc1ccccc1)[C@@H](C)O)C(=O)N[C@@H](CCCNC(=N)N)C(=O)N[C@@H](CCCCN)C(=O)N[C@@H](CO)C(=O)N[C@@H](C)C(=O)N[C@@H](CCCNC(=N)N)C(=O)N[C@@H](CCCCN)C(=O)N[C@@H](CSC1CC(=O)N(CCCC(=O)NCC(=O)N[C@@H](Cc2c[nH]cn2)C(=O)NCC(=O)N[C@@H](Cc2c[nH]cn2)C(=O)NCC(=O)N[C@@H](Cc2c[nH]cn2)C(=O)NCC(=O)N[C@@H](Cc2c[nH]cn2)C(=O)NCC(=O)N[C@@H](Cc2c[nH]cn2)C(=O)NCC(=O)N[C@@H](Cc2c[nH]cn2)C(N)=O)C1=O)C(N)=O (stereo partly shown) | – | – | – | 0.17 (-0.29-0.62) |
| C[C@H](NC(=O)CNC(=O)[C@@H](NC(=O)[C@H](Cc1ccccc1)NC(=O)CNC(=O)CNC(=O)[C@@H](N)Cc1ccccc1)[C@@H](C)O)C(=O)N[C@@H](CCCNC(=N)N)C(=O)N[C@@H](CCCCN)C(=O)N[C@@H](CO)C(=O)N[C@@H](C)C(=O)N[C@@H](CCCNC(=N)N)C(=O)N[C@@H](CCCCN)C(=O)N[C@@H](CSC1CC(=O)N(CCCC(=O)NCC(=O)N[C@@H](CC(=O)O)C(=O)NCC(=O)N[C@@H](CC(=O)O)C(=O)NCC(=O)N[C@@H](CC(=O)O)C(=O)NCC(=O)N[C@@H](CC(=O)O)C(=O)NCC(=O)N[C@@H](CC(=O)O)C(=O)NCC(=O)N[C@@H](CC(=O)O)C(N)=O)C1=O)C(N)=O (stereo partly shown) | 0.85 ± 0.07 | – | – | – |
| C[C@H](NC(=O)CCCN1C(=O)CC(SC[C@H](NC(=O)[C@H](CCCCN)NC(=O)[C@H](CCCNC(=N)N)NC(=O)[C@H](C)NC(=O)[C@H](CO)NC(=O)[C@H](CCCCN)NC(=O)[C@H](CCCNC(=N)N)NC(=O)[C@H](C)NC(=O)CNC(=O)[C@@H](NC(=O)[C@H](Cc2ccccc2)NC(=O)CNC(=O)CNC(=O)[C@@H](N)Cc2ccccc2)[C@@H](C)O)C(N)=O)C1=O)C(=O)N[C@@H](CC(=O)O)C(=O)N[C@@H](C)C(=O)N[C@@H](CC(=O)O)C(=O)N[C@@H](C)C(=O)N[C@@H](CC(=O)O)C(=O)N[C@@H](C)C(=O)N[C@@H](CC(=O)O)C(=O)N[C@@H](C)C(=O)N[C@@H](CC(=O)O)C(=O)N[C@@H](C)C(=O)N[C@@H](CC(=O)O)C(N)=O (stereo partly shown) | 0.97 ± 0.05 | – | – | – |
| C[C@H](NC(=O)CNC(=O)[C@@H](NC(=O)[C@H](Cc1ccccc1)NC(=O)CNC(=O)CNC(=O)[C@@H](N)Cc1ccccc1)[C@@H](C)O)C(=O)N[C@@H](CCCNC(=N)N)C(=O)N[C@@H](CCCCN)C(=O)N[C@@H](CO)C(=O)N[C@@H](C)C(=O)N[C@@H](CCCNC(=N)N)C(=O)N[C@@H](CCCCN)C(=O)N[C@@H](CSC1CC(=O)N(CCCC(=O)NCCOCCOCC(=O)NCCOCCOCC(=O)NCCOCCOCC(N)=O)C1=O)C(N)=O (stereo partly shown) | – | 0.97 ± 0.03 | -0.20 | -0.20 (-0.65-0.25) |
